Patent US20030032096A1 (US Dept. of Health and Human Services, published 2003)

Chains of the proteins cited; added tags and fusions are not shown. Residues count along the entry.
UniProt P70555, 25-546: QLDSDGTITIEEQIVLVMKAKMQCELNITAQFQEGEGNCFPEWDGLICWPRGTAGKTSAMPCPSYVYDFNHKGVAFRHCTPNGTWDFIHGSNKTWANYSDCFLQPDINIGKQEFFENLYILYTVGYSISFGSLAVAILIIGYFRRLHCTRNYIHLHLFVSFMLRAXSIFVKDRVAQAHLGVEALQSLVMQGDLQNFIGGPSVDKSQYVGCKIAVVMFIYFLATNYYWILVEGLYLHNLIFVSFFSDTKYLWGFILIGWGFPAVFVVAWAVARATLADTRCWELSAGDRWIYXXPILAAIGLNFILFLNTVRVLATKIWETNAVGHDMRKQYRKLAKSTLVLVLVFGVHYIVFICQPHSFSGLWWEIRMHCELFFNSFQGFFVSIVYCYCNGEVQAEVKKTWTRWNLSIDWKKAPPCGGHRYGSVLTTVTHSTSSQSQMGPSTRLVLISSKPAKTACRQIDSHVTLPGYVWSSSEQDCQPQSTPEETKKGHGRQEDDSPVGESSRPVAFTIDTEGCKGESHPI
UniProt P49190, 25-550: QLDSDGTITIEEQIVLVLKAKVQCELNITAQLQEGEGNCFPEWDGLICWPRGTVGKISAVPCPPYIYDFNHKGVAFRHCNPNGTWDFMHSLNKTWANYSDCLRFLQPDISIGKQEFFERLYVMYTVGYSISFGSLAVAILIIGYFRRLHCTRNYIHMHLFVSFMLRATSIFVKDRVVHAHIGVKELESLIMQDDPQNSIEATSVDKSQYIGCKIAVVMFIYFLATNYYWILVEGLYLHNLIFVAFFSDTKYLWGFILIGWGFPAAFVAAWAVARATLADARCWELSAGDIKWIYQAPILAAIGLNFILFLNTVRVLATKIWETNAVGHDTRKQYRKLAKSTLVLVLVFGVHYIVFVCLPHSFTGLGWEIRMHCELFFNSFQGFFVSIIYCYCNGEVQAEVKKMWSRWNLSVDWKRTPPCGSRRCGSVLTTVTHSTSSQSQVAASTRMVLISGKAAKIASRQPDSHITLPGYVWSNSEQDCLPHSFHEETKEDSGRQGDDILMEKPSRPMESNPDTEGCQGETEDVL

Assays:
rat PTH2 receptor = rat PTH2 receptor (rat, UniProt P70555 25-546); assay: cell-based or functional assay
[1] = target: human parathyroid hormone type 2 receptor (PTH2 receptor) (human) (UniProt P49190); assay: cell-based or functional assay

B1: hPTH(1-34) (peptide, UniProt P01270 32-65, looked up)
peptide: SVSEIQLMHNLGKHLNSMERVEWLRKKLQDVHNF
B1 gave a -logEC50 (cAMP accumulation) (rat PTH2 receptor) of 6.85 and an EC50 (cAMP accumulation) (rat PTH2 receptor) of 140 nM.

B2: hPTH(1-84) (peptide, UniProt P01270 32-115, looked up)
peptide: SVSEIQLMHNLGKHLNSMERVEWLRKKLQDVHNFVALGAPLAPRDAGSQRPRKKEDNVLVESHEKSLGEADKADVNVLTKAKSQ
B2 showed a -logEC50 (cAMP accumulation) [1] of 8.26 and an EC50 (cAMP accumulation) [1] of 5.5 nM.
